In US9198906B2, “Ketoconazole enantiomer in humans” (Cortendo AB (publ), priority 2006, dated 2015):

Assay: Atorvastatin drug interaction study (3-way cross-over)
Details: 80 mg atorvastatin + 400 mg; relative to the atorvastatin-only control

2S,4R ketoconazole [DIO-902]
AUC of total active HMG CoA reductase inhibitor in plasma: increasing
Cmax of total active HMG CoA reductase inhibitor in plasma: reduced
